Experiments:
[1] = biological target: T1, Vitamin D3 receptor (Rattus norvegicus) (UniProt P13053); assay: Ratio of ED50 for drug to 1-alpha,25-dihydroxyvitamin for rat recombinant VDR
T1 sequence (whole entry): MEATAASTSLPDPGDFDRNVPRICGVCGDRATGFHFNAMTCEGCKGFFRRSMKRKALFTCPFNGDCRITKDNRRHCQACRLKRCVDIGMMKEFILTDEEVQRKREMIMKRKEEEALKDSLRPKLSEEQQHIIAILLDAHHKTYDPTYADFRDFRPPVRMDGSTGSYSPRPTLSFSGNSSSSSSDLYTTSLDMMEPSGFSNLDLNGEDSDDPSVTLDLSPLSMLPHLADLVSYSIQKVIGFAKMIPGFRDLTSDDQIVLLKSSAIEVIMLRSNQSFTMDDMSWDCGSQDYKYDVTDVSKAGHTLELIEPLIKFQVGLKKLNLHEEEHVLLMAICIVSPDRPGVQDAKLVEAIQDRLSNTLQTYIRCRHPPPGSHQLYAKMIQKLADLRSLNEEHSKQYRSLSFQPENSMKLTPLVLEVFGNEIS

[2] = biological target: T1, Vitamin D3 receptor (Rattus norvegicus); assay: Ratio of ED50 for drug to 1-alpha,25-dihydroxyvitamin for VDR in rat osteosarcoma cells assessed as 24-hydroxylase transcription; type: cell-based

Row | Structure (SMILES) | Ratio ED50 [1] | Ratio ED50 [2]
1 | C[C@H](CCCC(C)(C)O)C1CC[C@H]2/C(=C/C=C3\C[C@@H](O)C4=CCCO[C@@H]4C3)CCC[C@]12C (stereo partly drawn) | > 1e+06 | –
2 | C[C@H](CCCC(C)(C)O)C1CC[C@H]2/C(=C/C=C3/C[C@@H](O)C4=CCCO[C@@H]4C3)CCC[C@]12C (stereo partly drawn) | 560 | 1

— ChEMBL document CHEMBL1138266, “Design, synthesis, and biological evaluation of a 1alpha,25-dihydroxy-19-norvitamin D3 analogue with a frozen A-ring conformation” (J Med Chem, 2007)
